Test results from US20140100172A1 (MALLINCKRODT, published 2014).
Like-named read-outs stand apart in the source and are kept apart here.

Amino acid sequences for entries named in this document (tags omitted).
UniProt P61073, whole entry: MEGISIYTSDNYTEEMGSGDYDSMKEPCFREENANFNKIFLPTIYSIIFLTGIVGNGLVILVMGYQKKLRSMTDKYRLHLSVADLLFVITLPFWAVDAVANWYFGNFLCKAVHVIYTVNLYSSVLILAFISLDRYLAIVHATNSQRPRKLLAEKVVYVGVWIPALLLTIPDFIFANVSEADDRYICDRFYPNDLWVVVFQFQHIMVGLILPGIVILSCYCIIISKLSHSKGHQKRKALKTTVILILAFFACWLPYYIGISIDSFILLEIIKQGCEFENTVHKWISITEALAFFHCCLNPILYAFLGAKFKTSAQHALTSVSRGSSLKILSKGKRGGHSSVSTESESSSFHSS

Legend:
Assay in all cases: competition with 125I-CPCR4 tracer on CXCR4-expressing cells
[1] = target: T1, human chemokine receptor type 4 (CXCR4) (human, UniProt P61073 1-352)
T1 construct: whole, on cells; also called CXCR4 receptor; CXCR4 chemokine receptor

[2] = target: T1, human chemokine receptor type 4 (CXCR4); remark: listed apart in the source
[3] = target: T1, human chemokine receptor type 4 (CXCR4); remark: listed apart in the source

Binder | IC50 [1] [nM] | further results
YRRXG (cyclic; D-Tyr1; (Me)Nal4, also called OD5) [cyc[D-Tyr-Arg-Arg-(Me)Nal-Gly]] | 894 | –
YRRXG (cyclic; D-Tyr1; Nal4; (Me)Gly5, also called OD7) [cyc[D-Tyr-Arg-Arg-Nal-(Me)Gly]] | 136 | –
YRRXG (cyclic; (Me)D-Tyr1; Nal4, also called OD9) [cyc[(Me)D-Tyr-Arg-Arg-Nal-Gly]] | 247 | –
YFRXG (cyclic; D-Tyr1; Nal4) [cyc[D-Tyr-Phe-Arg-Nal-Gly]] | – | IC50 [2]: 154 nM
YRRXAA (cyclic; D-Tyr1; Nal4, also called BL158) [cyc[D-Tyr-Arg-Arg-Nal-Ala-Ala]] | – | IC50 [3]: 114 nM
